According to PMC11433769:

Tested on: CC(=O)CCO
Assay: purified protein
Details: 0.25 mM NADH, 100 mM potassium phosphate pH 7.0, 40 °C, 0.1 μM enzyme

## ChKRED20 (Chryseobacterium sp. CA49; A150Q/A187G/A46T/E173D/G185C/G94A/H42K/I114V/I86V/Q97K/S153N/Y246N)
  Km: 92.15 ± 14.49 mM
  kcat: 387 s⁻¹
  kcat/Km: 4250 M⁻¹ s⁻¹
